By EC50 is commonly meant the concentration needed to bring the measured effect to its halfway point.

Amino acid sequences for entries named in this document (tags omitted). Residues count along the entry.
UniProt P02716, 25-520, stated change not applied: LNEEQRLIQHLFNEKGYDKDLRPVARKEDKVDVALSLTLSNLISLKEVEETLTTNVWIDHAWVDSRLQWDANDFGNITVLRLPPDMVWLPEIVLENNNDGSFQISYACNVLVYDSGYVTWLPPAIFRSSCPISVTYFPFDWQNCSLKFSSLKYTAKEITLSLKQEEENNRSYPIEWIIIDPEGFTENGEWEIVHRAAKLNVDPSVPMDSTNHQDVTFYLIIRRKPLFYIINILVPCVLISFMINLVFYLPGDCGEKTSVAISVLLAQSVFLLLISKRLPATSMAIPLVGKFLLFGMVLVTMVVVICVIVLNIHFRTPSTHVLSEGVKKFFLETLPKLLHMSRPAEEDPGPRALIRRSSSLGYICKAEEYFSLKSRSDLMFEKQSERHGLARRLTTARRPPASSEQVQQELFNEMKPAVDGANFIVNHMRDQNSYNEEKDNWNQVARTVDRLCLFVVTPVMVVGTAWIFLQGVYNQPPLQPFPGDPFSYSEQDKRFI
UniProt P04760, 23-519, stated change not applied: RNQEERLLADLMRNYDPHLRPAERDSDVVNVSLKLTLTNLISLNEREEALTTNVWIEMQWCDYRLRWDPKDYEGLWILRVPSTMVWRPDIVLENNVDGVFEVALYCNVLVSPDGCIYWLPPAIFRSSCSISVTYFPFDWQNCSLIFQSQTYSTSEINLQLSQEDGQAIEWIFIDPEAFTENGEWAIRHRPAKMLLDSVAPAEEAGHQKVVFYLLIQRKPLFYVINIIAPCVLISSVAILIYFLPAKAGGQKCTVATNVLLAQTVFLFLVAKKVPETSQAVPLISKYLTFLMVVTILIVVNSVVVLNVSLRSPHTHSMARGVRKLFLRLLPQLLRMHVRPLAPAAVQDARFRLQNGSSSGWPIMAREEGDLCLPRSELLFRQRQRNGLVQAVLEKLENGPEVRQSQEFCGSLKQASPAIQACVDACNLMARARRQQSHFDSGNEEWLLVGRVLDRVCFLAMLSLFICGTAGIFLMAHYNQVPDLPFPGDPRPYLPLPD
UniProt P09690, 24-501 L285S: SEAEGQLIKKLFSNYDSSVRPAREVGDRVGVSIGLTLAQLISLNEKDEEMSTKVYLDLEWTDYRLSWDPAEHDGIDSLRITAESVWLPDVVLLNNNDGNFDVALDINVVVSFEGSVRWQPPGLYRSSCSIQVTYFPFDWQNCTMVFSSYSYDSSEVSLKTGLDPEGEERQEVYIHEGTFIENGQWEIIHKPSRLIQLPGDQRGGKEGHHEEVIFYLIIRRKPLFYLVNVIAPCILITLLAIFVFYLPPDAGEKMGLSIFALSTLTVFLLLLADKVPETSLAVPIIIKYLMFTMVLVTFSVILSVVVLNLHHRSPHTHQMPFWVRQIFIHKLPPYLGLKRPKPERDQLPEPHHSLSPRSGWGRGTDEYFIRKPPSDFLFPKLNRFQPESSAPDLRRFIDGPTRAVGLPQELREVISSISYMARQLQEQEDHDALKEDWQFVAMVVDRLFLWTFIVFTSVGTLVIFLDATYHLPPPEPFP

The source of these data is patent publication US20050009103A1, “Methods of precise molecular-level determination of ligand-receptor interactions and designing selective drug compounds based on said interactions” (priority 2003, published 2005).

Assay [1] deals with T1, Mouse muscle embryonic nAChR, Trp α149, Leu9′Ser mutation in M2 of the β subunit (Mus musculus, UniProt P02716+P04756+P04760).
T1 construct: expressed in transfected cells; host or cells: Xenopus laevis oocytes (mRNA and suppressor tRNA injected)
The assay is described as follows: Two-electrode voltage clamp of Xenopus oocytes expressing nAChR, Trp at α149 (wild type rescue by nonsense suppression). In kind it is cell-based. Here is the method:
(§1) Unnatural amino acids were incorporated into the nAChR using in vivo nonsense suppression methods, and mutant receptors were evaluated electrophysiologically (Dougherty, D. A. (2000) Curr. Opin. Chem. Biol. 4:645-652).
(§2) In studies of weak agonists and/or receptors with diminished binding capability, it is necessary to introduce another mutation that independently decreases EC50. This was accomplished via a Leu-to-Ser mutation in the β subunit at a site known as 9′ in the M2 transmembrane region of the receptor. This M2-β9′ site is almost 50 Å from the binding site, and previous work has shown that a Leu9′Ser mutation lowers the EC50 by a factor of roughly 10 without altering trends in EC50 values (Beene, D. L., et al. (2002) Biochem. 41:10262-9; and Kearney, P. C., et al. (1996) Mil. Pharmacol. 50:1401-1412). […] It is important to note that the EC50 value is not a binding constant, but a composite of equilibria for both binding and gating.
(§3) Stage VI oocytes of Xenopus laevis were employed. Oocyte recordings were made 24 to 48 h post injection in two-electrode voltage clamp mode using the OpusXpress™ 6000A (Axon Instruments, Union City, Calif.). Oocytes were superfused with Ca^2+-free ND96 solution at flow rates of 1 ml/min, 4 ml/min during drug application and 3 ml/min during wash. Holding potentials were −60 mV. Data were sampled at 125 Hz and filtered at 50 Hz. […]
On the technique in general: Two-electrode voltage clamp is typically applied to oocytes expressing channels or transporters.

Assay [2] deals with T2, Mouse muscle embryonic nAChR, 5-F-Trp at α149, Leu9′Ser mutation in M2 of the β subunit (Mus musculus, UniProt P02716+P04756+P04760).
T2 construct: Mouse muscle embryonic nAChR in the pAMV vector was used
The assay is described as follows: Two-electrode voltage clamp of Xenopus oocytes expressing nAChR, F-Trp at α149. The note with it: read-out: EC50, F-Trp at α149, ± standard error of the mean. In kind it is cell-based. Here is the method:
as §1, §2, §3

In assay [3] the target is T3, Mouse muscle embryonic nAChR, 5,7-F2-Trp at α149, Leu9′Ser mutation in M2 of the β subunit (Mus musculus, UniProt P02716+P04756+P04760).
T3 construct: Mouse muscle embryonic nAChR in the pAMV vector was used
The assay is described as follows: Two-electrode voltage clamp of Xenopus oocytes expressing nAChR, F2-Trp at α149. In kind it is cell-based. Conditions: read-out: EC50, F2-Trp at α149, ± standard error of the mean. On the procedure: as §1, §2, §3

Assay [4] deals with T4, Mouse muscle embryonic nAChR, 5,6,7-F3-Trp at α149, Leu9′Ser mutation in M2 of the β subunit (Mus musculus, UniProt P02716+P04756+P04760).
T4 construct: Mouse muscle embryonic nAChR in the pAMV vector was used
The assay is described as follows: Two-electrode voltage clamp of Xenopus oocytes expressing nAChR, F3-Trp at α149. The class given is cell-based. Conditions: read-out: EC50, F3-Trp at α149, ± standard error of the mean. On the procedure:
as §1, §2, §3

Assay [5] addresses Mouse muscle embryonic nAChR, Thr α150, Leu9′Ser mutation in M2 of the β subunit (Mus musculus, UniProt P02716+P04756+P04760+P09690, L285S). Description: cell-based. Here is the method:
as §1, §2
(§4) To evaluate this possibility, the backbone amide at this position was converted to an ester by replacing Thr α150 with the analog α-hydroxy threonine (Tah) using the nonsense suppression methodology (FIG. 9a). Converting an amide carbonyl to an ester carbonyl weakens the hydrogen bonding ability of the oxygen, an effect that has been estimated to be worth ˜[…] (Koh, J. T., et al. (1997) Biochem. 36:11314-22). […]

Assay [6] has as its target T5, Mouse muscle embryonic nAChR, Tah α150 (ester carbonyl of Trp α149), Leu9′Ser mutation in M2 of the β subunit (Mus musculus, UniProt P02716+P04756+P04760).
T5 construct: other: ± standard error of the mean; backbone ester; β Leu9′Ser; Mouse muscle embryonic nAChR in the pAMV vector was used
The class given is cell-based. The note with it: read-out: EC50, Tah at α150, ± standard error of the mean, backbone ester. On the procedure: as §1, §2, §4

Consider `Clc1ccc(C2CC3CCC2N3)cn1` (racemic) [Epi, epibatidine], for which the EC50 turned out to be 0.72 ± 0.08 µM in assay [1]; 3.5 ± 0.1 µM in assay [2]; 7.5 ± 0.4 µM in assay [3]; 15 ± 1 µM in assay [4]; 0.6 ± 0.04 µM in assay [5]; 2.2 ± 0.2 µM in assay [6].
